Measured values taken from ChEMBL document CHEMBL3232813, “The identification, analysis and structure-based development of novel inhibitors of 6-hydroxymethyl-7,8-dihydropterin pyrophosphokinase” (Bioorg Med Chem, 2014).

Molecular target: T1, 2-amino-4-hydroxy-6-hydroxymethyldihydropteridine pyrophosphokinase (Escherichia coli (strain K12)) (UniProt P26281)
T1 sequence (whole entry): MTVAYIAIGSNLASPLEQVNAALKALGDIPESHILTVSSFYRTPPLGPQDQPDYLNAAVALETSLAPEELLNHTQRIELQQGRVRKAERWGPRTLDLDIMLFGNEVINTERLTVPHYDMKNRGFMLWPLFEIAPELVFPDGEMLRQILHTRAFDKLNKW
Test: Inhibition of GST-tagged Escherichia coli HPPK expressed in Escherichia coli using 6-hydroxymethyl-7,8-dihydropterin hydrochloride as substrate at 250 uM after 20 mins by luminescence assay
How it was run: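 GST tag cleaved from E. coli HPPK; 5 ng enzyme used. Reaction contained 0.75 µM dihydropterin substrate, 0.75 µM ATP, 100 mM Tris-HCl pH 8.5, 10 mM MgCl2, 10 mM BME, 0.01% Tween 20, 0.01% BSA and 5% DMSO. Compound present at 250 µM. Ran 20 min at 23 °C. Unconsumed ATP read by Kinase-Glo luminescence and reported as % inhibition.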

Compound	inhibition [%]
Cc1nc2c(=O)[nH]c(N)nc2[nH]1	49
Nc1nc(=O)[nH]c2nc[nH]c12	48
